The values that follow come from patent US9440982B2 (Eolas Therapeutics, Inc., priority 2012, dated 2016).

By UniProt entry, the sequences of proteins in these tests, tags left out.
UniProt O43613, whole entry: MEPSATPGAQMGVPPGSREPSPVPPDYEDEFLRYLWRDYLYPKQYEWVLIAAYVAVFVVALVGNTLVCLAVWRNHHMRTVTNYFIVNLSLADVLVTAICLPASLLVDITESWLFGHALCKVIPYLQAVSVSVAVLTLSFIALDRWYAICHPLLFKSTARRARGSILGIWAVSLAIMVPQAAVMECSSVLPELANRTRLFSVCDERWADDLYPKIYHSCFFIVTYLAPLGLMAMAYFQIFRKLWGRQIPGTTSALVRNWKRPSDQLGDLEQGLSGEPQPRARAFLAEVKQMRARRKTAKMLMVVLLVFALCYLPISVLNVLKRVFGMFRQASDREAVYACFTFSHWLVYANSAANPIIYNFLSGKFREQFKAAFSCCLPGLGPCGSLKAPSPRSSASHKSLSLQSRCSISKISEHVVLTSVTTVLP

The first experiment addresses T1, OX1 (Homo sapiens, UniProt O43613).
T1 construct: expressed in transfected cells; host or cells: CHO (CHO-OX1, kept under selection antibiotic)
Nature of the experiment: Orexin receptor cell-based functional assay, [Ca2+]i by FLIPR, CHO-OX1 cells. Conditions: CHO-OX1 cells, [Ca2+]i by FLIPR, antagonist dose-range 0.1 nM-10 μM, EC90 of OXA; read-out: OX1.
On to `Cc1ccc(-c2cnn(C)c2)c(C(=O)N2CCC[C@H](C)[C@H]2CNc2ccc(C(F)(F)F)cn2)c1` (racemic) [Example A66, rac-trans-(3-Methyl-2-(((5-(trifluoromethyl)pyridin-2-yl)amino)methyl)piperidin-1-yl)(5-methyl-2-(1-methyl-1H-pyrazol-4-yl)phenyl)methanone], for which the IC50 was determined as 150 nM. On the same count and under the same terms, to `Cc1ccc(-n2nccn2)c(C(=O)N2CCC[C@H](C)[C@H]2CNc2ccc(C(F)(F)F)cn2)c1` (racemic) [Example A67, rac-trans-(3-Methyl-2-(((5-(trifluoromethyl)pyridin-2-yl)amino)methyl)piperidin-1-yl)(5-methyl-2-(2H-1,2,3-triazol-2-yl)phenyl)methanone] belongs 6 nM; to `COc1ncc(-c2ccc(C)cc2C(=O)N2CCC[C@@H](C)[C@H]2CNc2ccc(C(F)(F)F)cn2)cn1` [Example A4, (2-(2-Methoxypyrimidin-5-yl)-5-methylphenyl)((2S,3R)-3-methyl-2-(((5-(trifluoromethyl)pyridin-2-yl)amino)methyl)piperidin-1-yl)methanone], 25 nM. On the same count and under the same terms, then `Cc1ccc(-c2cncs2)c(C(=O)N2CCC[C@@H](C)[C@H]2CNc2ccc(C(F)(F)F)cn2)c1` [Example A25, ((2S,3R)-3-Methyl-2-(((5-(trifluoromethyl)pyridin-2-yl)amino)methyl)piperidin-1-yl)(5-methyl-2-(thiazol-5-yl)phenyl)methanone], with 5 nM.

On to `Cc1ccc(-c2ccccn2)c(C(=O)N2CCC[C@@H](C)[C@H]2CNc2nc3cc(Cl)ccc3o2)c1` [Example A32, ((2S,3R)-2-(((5-Chlorobenzo[d]oxazol-2-yl)amino)methyl)-3-methylpiperidin-1-yl)(5-methyl-2-(pyridin-2-yl)phenyl)methanone], for which the IC50 amounted to 9 nM.

As to `Cc1nc(C(=O)N2CCC[C@H](C)[C@@H]2CNc2nc3ccccc3o2)c(-c2ccc(F)cc2)s1` [Example A42, ((2R,3S)-2-((Benzo[d]oxazol-2-ylamino)methyl)-3-methylpiperidin-1-yl)(5-(4-fluorophenyl)-2-methylthiazol-4-yl)methanone], the IC50 was over 1000 nM. The same measure, in the same setting: to `Cc1ccc(-c2cnn(C)c2)c(C(=O)N2CCC[C@@H](C)[C@H]2CNc2ccc(C#N)cn2)c1` [Example A45, 6-((((2S,3R)-3-Methyl-1-(5-methyl-2-(1-methyl-1H-pyrazol-4-yl)benzoyl)piperidin-2-yl)methyl)amino)nicotinonitrile] belongs over 1000 nM. Take `Cc1ccc(NC[C@@H]2[C@H](C)CCCN2C(=O)c2cc(C)ccc2-n2nccn2)nc1` [Example A48, ((2S,3R)-3-Methyl-2-(((5-methylpyridin-2-yl)amino)methyl)piperidin-1-yl)(5-methyl-2-(2H-1,2,3-triazol-2-yl)phenyl)methanone]: the IC50 amounted to 25 nM. The same measure, in the same setting: then `Cc1ccc(NC[C@@H]2[C@H](C)CCCN2C(=O)c2cc(C)ccc2-n2cnc(C(F)(F)F)n2)nc1` [Example A56, ((2S,3R)-3-Methyl-2-(((5-methylpyridin-2-yl)amino)methyl)piperidin-1-yl)(5-methyl-2-(3-(trifluoromethyl)-1H-1,2,4-triazol-1-yl)phenyl)methanone], with over 1000 nM; and `Cc1ccc(-n2cnc(C(F)(F)F)n2)c(C(=O)N2CCC[C@@H](C)[C@H]2CNc2ccc(F)cn2)c1` [Example A57, ((2S,3R)-2-(((5-Fluoropyridin-2-yl)amino)methyl)-3-methylpiperidin-1-yl)(5-methyl-2-(3-(trifluoromethyl)-1H-1,2,4-triazol-1-yl)phenyl)methanone], with over 1000 nM. Consider `Cc1ccc(-n2nccn2)c(C(=O)N2CCC[C@@H](C)[C@H]2CNc2ncccc2C#N)c1` [Example A90, 2-((((2S,3R)-3-Methyl-1-(5-methyl-2-(2H-1,2,3-triazol-2-yl)benzoyl)piperidin-2-yl)methyl)amino)nicotinonitrile], for which the IC50 came out at 360 nM. Still for that read-out and setting: then `Cc1ccc(-n2nccn2)c(C(=O)N2CCC[C@@H](C)[C@H]2CNc2ncc(Cl)cc2F)c1` [Example A92, ((2S,3R)-2-(((5-Chloro-3-fluoropyridin-2-yl)amino)methyl)-3-methylpiperidin-1-yl)(5-methyl-2-(2H-1,2,3-triazol-2-yl)phenyl)methanone], with 1 nM; and `Cc1ccc(-n2ccc(C)n2)c(C(=O)N2CCC[C@@H](C)[C@H]2CNc2ccc(C(F)(F)F)cn2)c1` [Example A108, ((2S,3R)-3-Methyl-2-(((5-(trifluoromethyl)pyridin-2-yl)amino)methyl)piperidin-1-yl)(5-methyl-2-(3-methyl-1H-pyrazol-1-yl)phenyl)methanone], with 2 nM; and `Cc1ccc(-c2ccc(C)cc2C(=O)N2CCC[C@@H](C)[C@H]2CNc2ccc(C(F)(F)F)cn2)nc1` [Example A118, ((2S,3R)-3-Methyl-2-(((5-(trifluoromethyl)pyridin-2-yl)amino)methyl)piperidin-1-yl)(5-methyl-2-(5-methylpyridin-2-yl)phenyl)methanone], with 15 nM.

On to `COc1ccc(NC[C@@H]2[C@H](C)CCCN2C(=O)c2cc(C)ccc2-n2nccn2)nc1` [Example A126, ((2S,3R)-2-(((5-Methoxypyridin-2-yl)amino)methyl)-3-methylpiperidin-1-yl)(5-methyl-2-(2H-1,2,3-triazol-2-yl)phenyl)methanone], for which the IC50 turned out to be 43 nM. On the same count and under the same terms, to `Cc1ccc(-n2ccc(C)n2)c(C(=O)N2CCC[C@@H](C)[C@H]2CNc2ncc(C#N)cn2)c1` [Example A131, 2-((((2S,3R)-3-Methyl-1-(5-methyl-2-(3-methyl-1H-pyrazol-1-yl)benzoyl)piperidin-2-yl)methyl)amino)pyrimidine-5-carbonitrile] belongs 20 nM; to `Cc1ccc(-n2nccn2)c(C(=O)N2CCC[C@@H](C)[C@H]2CNc2ccc(C3CC3)cn2)c1` [Example A136, ((2S,3R)-2-(((5-Cyclopropylpyridin-2-yl)amino)methyl)-3-methylpiperidin-1-yl)(5-methyl-2-(2H-1,2,3-triazol-2-yl)phenyl)methanone], 4 nM. In the case of `Cc1ccc(-n2nccn2)c(C(=O)N2CCC[C@@H](C)[C@H]2CNc2ncc(Cl)cn2)c1` [Example A147, ((2S,3R)-2-(((5-Chloropyrimidin-2-yl)amino)methyl)-3-methylpiperidin-1-yl)(5-methyl-2-(2H-1,2,3-triazol-2-yl)phenyl)methanone], the IC50 was 8 nM. Consider `Cc1ccc(-c2ccccn2)c(C(=O)N2CCC[C@@H](C)[C@H]2CNc2nnc(C(F)(F)F)s2)c1` [Example A151, ((2S,3R)-3-Methyl-2-(((5-(trifluoromethyl)-1,3,4-thiadiazol-2-yl)amino)methyl)piperidin-1-yl)(5-methyl-2-(pyridin-2-yl)phenyl)methanone], for which the IC50 stood at 83 nM. The same measure, in the same setting: then `Cc1ccc(-n2cccn2)c(C(=O)N2CCC[C@@H](C)[C@H]2CNc2ccc(C#N)cn2)c1` [Example A155, 6-((((2S,3R)-3-Methyl-1-(5-methyl-2-(1H-pyrazol-1-yl)benzoyl)piperidin-2-yl)methyl)amino)nicotinonitrile], with 500 nM.

The experiment is the same for the next values; noted with them: Table 2; CHO-OX1 cells, EC90 of OXA; read-out: IC50 Bioactivity OX1.
On to `Cc1nc(C(=O)N2CCC[C@H](C)[C@H]2CNc2nc3ccccc3o2)c(-c2ccc(F)cc2)s1` (racemic) [Example 95, rac-trans-(2-((Benzo[d]oxazol-2-ylamino)methyl)-3-methylpiperidin-1-yl)(5-(4-fluorophenyl)-2-methylthiazol-4-yl)methanone], for which the IC50 was 29 nM. The same measure, in the same setting: then `Cc1ccc(-n2nccn2)c(C(=O)N2CCC[C@@H](C)[C@H]2CNc2ncc(Cl)cn2)c1` (racemic) [Example 98, rac-cis-(2-(((5-Chloropyrimidin-2-yl)amino)methyl)-3-methylpiperidin-1-yl)(5-methyl-2-(2H-1,2,3-triazol-2-yl)phenyl)methanone], with 6 nM; and `Cc1ccc(-c2cnn(C)c2)c(C(=O)N2CCC[C@@H](C)[C@H]2CNc2ccc(C(F)(F)F)cn2)c1` (racemic) [Example 103, rac-cis-(3-Methyl-2-(((5-(trifluoromethyl)pyridin-2-yl)amino)methyl)piperidin-1-yl)(5-methyl-2-(1-methyl-1H-pyrazol-4-yl)phenyl)methanone], with 4 nM. The same measure, in the same setting: then `Cc1ccc(-n2nccn2)c(C(=O)N2CCC[C@@H](C)[C@H]2CNc2ccc(C(F)(F)F)cn2)c1` (racemic) [Example 114, rac-cis-(3-Methyl-2-(((5-(trifluoromethyl)pyridin-2-yl)amino)methyl)piperidin-1-yl)(5-methyl-2-(2H-1,2,3-triazol-2-yl)phenyl)methanone], with 3 nM. Still for that read-out and setting: then `O=C(NC[C@@H]1C[C@@H](O)CN1C(=O)c1ccccc1-c1ccccc1)c1cccc2cccnc12` [Example 4, N-(((2S,4R)-1-(Biphenylcarbonyl)-4-hdroxypyrrolidin-2-yl)methyl)quinoline-8-carboxamide], with 88 nM; and `O=C(NC[C@@H]1C[C@H](O)CN1C(=O)c1ccccc1-c1ccccc1)c1cccc2cccnc12` [Example 126, N-(((2S,4S)-1-([1,1′-Biphenyl]-2-carbonyl)-4-hydroxypyrrolidin-2-yl)methyl)quinoline-8-carboxamide], with 6 nM. As to `CO[C@H]1C[C@@H](CNC(=O)c2cccc3cccnc23)N(C(=O)c2ccccc2-c2ccccc2)C1` [Example 127, N-(((2S,4S)-1-([1,1′-Biphenyl]-2-carbonyl)-4-methoxypyrrolidin-2-yl)methyl)quinoline-8-carboxamide], the IC50 stood at 8 nM.

Turning to `CO[C@@H]1C[C@@H](CNC(=O)c2cccc3cccnc23)N(C(=O)c2ccccc2-c2ccccc2)C1` [Example 129, N-(((2S,4R)-1-([1,1′-biphenyl]-2-carbonyl)-4-methoxypyrrolidin-2-yl)methyl)quinoline-8-carboxamide], the IC50 turned out to be 120 nM.

The experiment is the same for the next values; noted with them: Table 6; racemate vs enantiomers; read-out: OX1 IC50.
On to `Cc1ccc(-c2cnn(C)c2)c(C(=O)N2CCC[C@@H](C)[C@H]2CNc2ccc(C(F)(F)F)cn2)c1` (racemic) [Example 103, rac-cis-(3-Methyl-2-(((5-(trifluoromethyl)pyridin-2-yl)amino)methyl)piperidin-1-yl)(5-methyl-2-(1-methyl-1H-pyrazol-4-yl)phenyl)methanone], for which the IC50 was determined as 4 nM.
